Results reported in patent US10100070B2, “Borate-based base generator, and base-reactive composition comprising such base generator” (FUJIFILM Wako Pure Chemical Corporation, priority 2014, dated 2018).

Assay: Solubility tests to organic solvents and a base-reactive compound
Details: 0.1 g compound, ethyl lactate added gradually at room temperature, visual

1,3-dimethyl-2-(N,N′,N″,N″-tetramethylguanidino)-4,5-dihydro-3H-imidazolium triphenyl(n-butyl)borate [Comp. Ex. 10]
Solubility in EL: −− (dissolved only into not less than 10 mL thereof)
